Values quoted from earlier work, collected in patent US9241952B2, “Method of treating type II diabetes, hyperglycemia or hypoglycemia by administering a synergistic combination of a sulphonylurea and inulin” (OZSTAR THERAPEUTICS PTY LTD, priority 2010, dated 2016).

Details: insulin-treated patients; cited from earlier work

In the case of insulin, the weight gain is given as roughly 3.5 kg.
